# Casp6 inh – human caspase-6 inhibitors, primary screen, biochemical, VEID-R110 fluorescence, single point, set 2; P55212; purified caspase-6, Z-VEID-R110 cleavage fluorescence; inhibition, % at 12.5 µM; 350,000 tested, 0.53% active;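 active = mean inhibition across replicates at least about 35%, with every replicate also reaching that limit, limit read from the data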;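 note: 0% = median of neutral control wells and 100% = no fluorescence left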
# RAD52 anneal inh – RAD52 DNA annealing inhibitors, primary screen, biochemical, FRET, single point, set 2. recombinant RAD52 DNA annealing, FRET fluorescence. inhibition, % at 18.7 µM. 360,000 tested, 0.46% active. AID 651710, 2012;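 active = every replicate showing at least 50% inhibition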
# PglD DTNB – C. jejuni PglD acetyltransferase inhibitors, primary screen, biochemical, DTNB colorimetric, single point. inhibition, % at 12.5 µM. purified PglD enzyme, DTNB colorimetric CoA detection. 360,000 tested, 0.098% active. AID 602405, 2012. UDP-N-acetylbacillosamine N-acetyltransferase PglD (Campylobacter jejuni); in the data active = inhibition above about 16%, passing the limit was not always enough
# RAD54 branch – inhibitors of human RAD54 branch migration, primary screen, biochemical, fluorescence, single point. AID 602329, 2012. inhibition, % at 10.4 µM. 360,000 tested, 0.14% active. RAD54 Holliday junction branch migration, FAM/BHQ fluorescence. DNA repair and recombination protein RAD54-like (Homo sapiens), Q92698;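 active = mean normalized replicate activity at least 40 and at least half of replicates scoring 40 or more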;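 note: 0% = median of neutral control wells and 100% = median of positive control wells; inhibitors cause a drop in the FAM fluorescence signal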
# Yeast UUG start – modulators of yeast start codon fidelity, primary screen, whole organism, S. cerevisiae, single point, plate reader. S. cerevisiae UUG-firefly luciferase reporter, luminescence/redox ratio. activity score, % at 18.7 µM. hit rate 0.13% among 350,000;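 active = replicate mean at a twofold rise or more, about +100% in these data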;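 also: firefly luciferase made from a UUG start codon reports start codon fidelity; reporter light over untreated wells divided by growth signal over untreated wells; some hits fall short of that in this replicate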
# GSIS activator – GLuc luminescence reporter in INS-1E cells, primary screen for activators of glucose-dependent secretion of insulin | activation, % at 16.6 µM | INS-1E GLuc reporter insulin secretion, 2-3 h | AID 743287, 2014 | 370,000 tested, 0.61% active;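 active = lowest replicate activation of at least 40%, so every replicate reaches that level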;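 note: 0% = median of neutral control wells and 100% = median of IBMX positive control wells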
# PglD confirm – PglD acetyltransferase inhibitors, confirmation, biochemical, DTNB absorbance, single point, cherry-picked samples | shares compounds with PglD DTNB | Purified C. jejuni PglD, DTNB absorbance 412 nm | inhibition, % at 20 µM | 320 tested, under 10 active | AID 743156, 2013;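 active = mean inhibition across replicates of at least 20% with every single replicate also at 20% or more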;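 note: initial rate of CoA release by acetyl transfer from AcCoA to the UDP-4-amino sugar; 0% = median of neutral control wells and 100% = median of positive control wells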
# * marks the source's active call; other numbers are inactive results; . = no result given. Shown are actives, neighbours in structure and some others; about 1.5% of the full set was active somewhere.
# Screens by letter: A = Casp6 inh; B = RAD52 anneal inh; C = PglD DTNB; D = RAD54 branch; E = Yeast UUG start; F = GSIS activator; G = PglD confirm
smiles: Cc1cccc(C)c1NC(=O)CN(C)C(=O)C1CCCCC1
  A: -2	B: 5	C: -4	D: 5	E: -14	F: 12	G: .

smiles: Cc1cccc(NC(=O)CN(C)C(=O)C2CC2)c1C
  A: 3	B: -7	C: 22*	D: 0	E: -15	F: -12	G: 4

smiles: CCCN1C[C@@H](C)[C@@H](OC)CN(C)C(=O)c2ccc(NC(=O)C3CCC3)cc2OC[C@@H]1C
  A: -2	B: 0	C: 0	D: 3	E: -11	F: 1	G: .

smiles: FC(F)(F)c1ccncc1-c1nnc(C2CCCCC2)o1
  A: -2	B: -6	C: 22*	D: -1	E: -3	F: 6	G: 0

smiles: Cc1cccc2nc(CSc3ccc(Cl)cc3)cn12
  A: 2	B: -14	C: 3	D: -1	E: -13	F: 11	G: .

smiles: CCCCC1=CC2=C(c3ccco3)C(=O)C(C)(OC(=O)c3ccc(OC)cc3)C(=O)C2=CN1C(CO)CO (configuration not stated)
  A: 5	B: -69	C: 1	D: -10	E: -8	F: 7	G: .

smiles: CCCCNC(=S)NNc1c(Cl)cc(Cl)cc1Cl
  A: 2	B: 1	C: 23*	D: -2	E: -27	F: -6	G: 10

smiles: O=S(=O)(NC1CCN(Cc2ccccc2)CC1)c1ccc2ccccc2c1
  A: -2	B: -16	C: .	D: .	E: .	F: 35	G: .

smiles: O=S(=O)(NC1CCN(Cc2ccccc2)CC1)c1ccc(F)c(F)c1
  A: -1	B: -58	C: 22*	D: 0	E: -16	F: 2	G: 3

smiles: Cc1ccc(N(CC(=O)NC(C)c2ccccc2)S(=O)(=O)c2c(C)n[nH]c2C)cc1 (configuration not stated)
  A: 6	B: -5	C: -3	D: 0	E: -18	F: -13	G: .

smiles: Cc1ccc(N(CC(=O)NC(C)c2ccccc2)S(=O)(=O)c2c(C)noc2C)cc1 (configuration not stated)
  A: 1	B: 7	C: 27*	D: -4	E: -21	F: 11	G: -5

smiles: CCOC(=O)COc1nc(N(C)C)nc(N(C)C)n1
  A: .	B: .	C: 2	D: 0	E: -10	F: .	G: .

smiles: CN(C)c1nc(OCC(=O)NC(C)(C)C)nc(N(C)C)n1
  A: .	B: .	C: 22*	D: -3	E: 5	F: .	G: 1

smiles: CCN(CC)S(=O)(=O)c1ccc(NS(=O)(=O)c2cccc(C)c2)cc1
  A: .	B: .	C: 25*	D: 11	E: -15	F: .	G: 0

smiles: CCN(CC)S(=O)(=O)c1ccc(NS(=O)(=O)c2ccc(F)cc2)cc1
  A: .	B: .	C: -4	D: 4	E: -6	F: .	G: .

# Whole records, looked up by structure.
# Cc1cccc2nc(CSc3ccc(Cl)cc3)cn12 is listed as Casp6 inh = 2; RAD52 anneal inh = -14; PglD DTNB = 3; RAD54 branch = -1; Yeast UUG start = -13; GSIS activator = 11; PglD confirm = .
# Cc1ccc(N(CC(=O)NC(C)c2ccccc2)S(=O)(=O)c2c(C)noc2C)cc1 (configuration not stated) is listed as Casp6 inh = 1; RAD52 anneal inh = 7; PglD DTNB = 27*; RAD54 branch = -4; Yeast UUG start = -21; GSIS activator = 11; PglD confirm = -5

# (more compounds)
# Screens by letter: A = Casp6 inh; B = RAD52 anneal inh; C = PglD DTNB; D = RAD54 branch; E = Yeast UUG start; F = GSIS activator; G = PglD confirm
smiles: O=c1oc(CCO)cc2ccc(Br)cc12
  A: 8	B: -12	C: 1	D: -2	E: -34	F: 4	G: .

smiles: CO/N=C(/CS(=O)(=O)c1ccc(C)cc1)c1ccc(OC)cc1
  A: .	B: .	C: -4	D: -4	E: -14	F: 8	G: .

smiles: COCCC(=O)N1CCC(Oc2ccc(C(=O)N3CCCCCC3)cc2)CC1
  A: -8	B: 2	C: 2	D: 1	E: 0	F: 7	G: .

smiles: CCN(CC)C1CCN(C(=O)c2ccc(OC3CCN(C(=O)CCOC)CC3)cc2)C1 (configuration not stated)
  A: -1	B: -52	C: 26*	D: -3	E: -18	F: 10	G: 5

smiles: Cc1cc(OCC(=O)N2CCc3ccccc3C2)c(C)cc1Br
  A: 0	B: -12	C: 10	D: -3	E: -15	F: 1	G: .

smiles: Cn1ncc(C(=O)Nc2ccc(OC(F)(F)F)cc2)c1-n1cccc1
  A: -2	B: -2	C: 21*	D: -6	E: -14	F: -13	G: -5

smiles: C[C@@H]1CN([C@@H](C)CO)C(=O)Cc2cc(NC(=O)Nc3ccccc3)ccc2O[C@H]1CN(C)Cc1ccc(-c2ccccc2)cc1
  A: 1	B: 32	C: 0	D: 2	E: 0	F: -3	G: .

smiles: C/C(=N/OCO/N=C(\C)c1ccccc1)c1ccccc1
  A: 1	B: -2	C: 3	D: -11	E: -11	F: -1	G: .

smiles: C/C(=N/OCO/N=C(/C)c1ccc(F)cc1)c1ccc(F)cc1
  A: 2	B: -10	C: 26*	D: -3	E: -21	F: 12	G: 0

smiles: CC1(C)C(=O)Nc2ccccc2N1C(=O)CSc1nnc2ccccn12
  A: 27	B: -4	C: 35*	D: -10	E: -28	F: 28	G: -1

smiles: Cc1cc(-c2ccccc2)nc2oc3c(c12)NC(=O)CN(c1ccccc1)C3=O
  A: 6	B: -13	C: -5	D: -2	E: -18	F: .	G: .

smiles: CCCCc1ccc(S(=O)(=O)NC(=O)C2(C)CCN2C(=O)CCc2cccs2)cc1 (configuration not stated)
  A: 3	B: -5	C: 69*	D: -2	E: 8	F: -2	G: 3

smiles: O=C(NCCc1ccc(Cl)cc1)C1CCN(S(=O)(=O)c2cccs2)CC1
  A: .	B: .	C: 21*	D: 1	E: 13	F: .	G: 0

smiles: O=C(NCCc1ccccc1)C1CCN(S(=O)(=O)c2cccs2)CC1
  A: .	B: .	C: 3	D: -3	E: -32	F: 6	G: .

smiles: O=Cc1ccc(OCCN2CCCC2=O)cc1
  A: -2	B: -6	C: 44*	D: -6	E: 3	F: -1	G: -4

smiles: O=Cc1ccccc1OCCN1CCCC1=O
  A: 0	B: -4	C: 6	D: 1	E: -11	F: -7	G: .

smiles: CC1CCCN(c2c([N+](=O)[O-])c(=O)oc3ccccc23)C1 (configuration not stated)
  A: .	B: .	C: .	D: .	E: .	F: -10	G: .

smiles: Nc1c(N2CCCC2)c2ccccc2oc1=O
  A: 3	B: -4	C: 21*	D: 6	E: 1	F: 4	G: -4

smiles: O=c1nc(N2CCCCC2)nc(Nc2ccccc2)[nH]1
  A: .	B: .	C: .	D: .	E: .	F: -4	G: .

smiles: COC(CNc1cc(=O)oc2ccccc12)OC
  A: .	B: .	C: 23*	D: 6	E: -11	F: .	G: 1

smiles: C=C(C)C(=O)Nc1cccc(C2=NOC3(C2)C[C@@H](C(N)=O)N(C(=O)C2(C)CC2)C3)c1 (some centres not stated)
  A: .	B: .	C: 23*	D: 11	E: 1	F: 8	G: 2

smiles: C=C(C)C(=O)Nc1cccc(C2=NOC3(C2)C[C@H](C(N)=O)N(C(=O)c2ccccc2)C3)c1 (some centres not stated)
  A: 31	B: -7	C: 0	D: 10	E: -13	F: .	G: .

smiles: CCCCn1nnnc1SCC(=O)Nc1ccc(C)cc1
  A: .	B: .	C: 5	D: 3	E: -6	F: .	G: .

smiles: CC(=O)N1N=C(c2cccc([N+](=O)[O-])c2)OC1(C)CC(=O)Nc1ccccc1 (configuration not stated)
  A: -2	B: -5	C: -7	D: 2	E: 2	F: 17	G: .

smiles: CCC(OC(=O)CNS(=O)(=O)c1ccccc1)C(=O)c1ccccc1 (configuration not stated)
  A: 0	B: -17	C: 20*	D: -5	E: -11	F: -19	G: -2

smiles: OCc1ccc(N=Nc2ccccc2)cc1
  A: 0	B: -4	C: 0	D: -6	E: -23	F: -9	G: .

smiles: COc1ccc(N=Nc2ccc(CO)cc2)cc1
  A: -1	B: 0	C: 45*	D: 2	E: -40	F: 1	G: 1

smiles: Nc1n[nH]c(-c2ccccc2)c1-c1ccccc1
  A: -2	B: -12	C: 33*	D: 4	E: -17	F: -2	G: -3

smiles: O=C(NCc1ccco1)Oc1ccccc1
  A: .	B: .	C: 21*	D: 1	E: -15	F: -7	G: -6

# Screens as filed in PubChem.
